Here are results for one compound from patent publication US9636379B2, “Compositions and methods for treating pruritus” (Washington University, priority 2007, dated 2017).

Sequences of proteins named here, by UniProt entry; tags and fusion partners are left off.
UniProt P42866, whole entry: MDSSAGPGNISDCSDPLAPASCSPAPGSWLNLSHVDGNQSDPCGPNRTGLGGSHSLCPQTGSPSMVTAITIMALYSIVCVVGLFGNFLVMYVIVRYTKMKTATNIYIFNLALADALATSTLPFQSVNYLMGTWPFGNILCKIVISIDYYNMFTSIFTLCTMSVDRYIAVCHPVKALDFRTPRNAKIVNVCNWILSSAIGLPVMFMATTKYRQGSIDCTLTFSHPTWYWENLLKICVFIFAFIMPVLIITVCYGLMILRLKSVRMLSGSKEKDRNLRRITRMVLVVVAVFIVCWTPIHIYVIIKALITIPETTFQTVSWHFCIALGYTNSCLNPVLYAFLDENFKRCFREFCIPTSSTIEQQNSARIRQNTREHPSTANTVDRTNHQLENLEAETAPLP

This data set deals with mu-opioid receptor (MOR) (Mus musculus, UniProt P42866).

On to `C[C@@H](NC(=O)[C@@H](N)Cc1ccc(O)cc1)C(=O)NCC(=O)N(C)[C@@H](Cc1ccccc1)C(=O)NCCO` [DAMGO], for which the “scratching after intrathecal DAMGO” value (0.02 nmol/5 μl i.t.) is reported as “induced scratching behavior”. Besides, the DAMGO-induced scratching behavior entry (GRPR mutant mice) is “almost abolished”.
